A short description of the assay: Displacement of [3H]DTG from sigma2 receptor in guinea pig brain membrane after 120 mins by scintillation counting analysis. Format: cell membranes, Cavia porcellus.

Data on one compound can be found in ChEMBL document CHEMBL3352167 (Bioorg Med Chem, 2015).

SMILES strings stand for the structures. pKi: −log10 of the molar value.

As for `CC(C)=CCN1CC[C@]2(C)c3cc(O)ccc3C[C@H]1[C@H]2C` [(+)-PENTAZOCINE], the pKi was 6.14.
